The results in this text go back to patent US20240000956A1 (UT BATTELLE, published 2024).

The assay addresses endogenous c-MET immunoprecipitated from 293T cells (human, UniProt P08581). Briefly: direct interaction assay: in-vitro translated Flag-HGF 4Cys-4Ala added to endogenous c-MET immunoprecipitated on anti-MET beads, immunoblot. As to the method:
FIG. 3A-E: HGF PAN domain regulates c-MET signaling cascade via four core cysteines. A. Mutation of the core cysteines in HGF PAN domain blocks HGF-induced c-MET signaling. Both 293T and U-87 MG cells were stimulated with HGF WT and HGF 4Cys-4Ala proteins for the indicated amount of time. […] Representative blot images from n=2 experiments for individual cell line. B. Immunoblot showing that the core cysteines on the HGF PAN domain regulate its binding with c-MET. c-MET was immunoprecipitated from 293T cells on anti-MET bound beads. In-vitro translated Flag-tagged HGF WT and HGF 4Cys-4Ala were added to the beads as indicated to detect the interaction between endogenous c-MET and Flag-HGF WT and Flag-HGF 4Cys-4Ala. C. Right panel, quantification of the band intensities (n=2; ***p<0.0005 (Student's t test)). Immunoprecipitated Flag-HGFs band intensities were normalized to the respective c-MET IP bands and then further normalized to HGF-WT. D. HGF PAN domain defines perinuclear translocation of c-MET in cells. HeLa cells were stimulated with HGF WT and HGF 4Cys-4Ala proteins for the indicated amount of time following serum starvation. Post stimulation cells were fixed, mounted and endogenous c-MET localization pattern was visualized using Zeiss LSM 710 at 63× objective. Scale bars represent 20 μm. […] E. PAN domain regulates c-MET ubiquitination. […]
For orientation: In western blotting, separated proteins are transferred to a membrane and probed.

B1: Flag-HGF 4Cys-4Ala (ligand, human, UniProt P14210 32-728, looked up)
chain: QRKRRNTIHEFKKSAKTTLIKIDPALKIKTKKVNTADQAANRATRNKGLPFTAKAFVFDKARKQALWFPFNSMSSGVKKEFGHEFDLYENKDYIRNCIIGKGRSYKGTVSITKSGIKCQPWSSMIPHEHSFLPSSYRGKDLQENYCRNPRGEEGGPWCFTSNPEVRYEVCDIPQCSEVECMTCNGESYRGLMDHTESGKICQRWDHQTPHRHKFLPERYPDKGFDDNYCRNPDGQPRPWCYTLDPHTRWEYCAIKTCADNTMNDTDVPLETTECIQGQGEGYRGTVNTIWNGIPCQRWDSQYPHEHDMTPENFKCKDLRENYCRNPDGSESPWCFTTDPNIRVGYCSQIPNCDMSHGQDCYRGNGKNYMGNLSQTRSGLTCSMWDKNMEDLHRHIFWEPDASKLNENYCRNPDDDAHGPWCYTGNPLIPWDYCPISRCEGDTTPTIVNLDHPVISCAKTKQLRVVNGIPTRTNIGWMVSLRYRNKHICGGSLIKESWVLTARQCFPSRDLKDYEAWLGIHDVHGRGDEKCKQVLNVSQLVYGPEGSDLVLMKLARPAVLDDFVSTIDLPNYGCTIPEKTSCSVYGWGYTGLINYDGLLRVAHLYIMGNEKCSQHHRGKVTLNESEICAGAEKIGSGPCEGDYGGPLVCEQHKMRMVLGVIVPGRGCAIPNRPGIFVRVAYYAKWIHKIILTYKVPQS
notes: In-vitro translated for the c-MET pull-down; Purified protein was used to stimulate cells, and it is treated here as the same construct; also called 4Cys-4Ala HGF; PAN mutant HGF; not shown: Flag tag
As to B1, the binding result was “no binding”.
